{"sequences": {"note": "Amino acid sequences for entries named in this document (tags omitted). A change or cut given only in a name is not applied to a line headed by its entry.", "UniProt P23458": "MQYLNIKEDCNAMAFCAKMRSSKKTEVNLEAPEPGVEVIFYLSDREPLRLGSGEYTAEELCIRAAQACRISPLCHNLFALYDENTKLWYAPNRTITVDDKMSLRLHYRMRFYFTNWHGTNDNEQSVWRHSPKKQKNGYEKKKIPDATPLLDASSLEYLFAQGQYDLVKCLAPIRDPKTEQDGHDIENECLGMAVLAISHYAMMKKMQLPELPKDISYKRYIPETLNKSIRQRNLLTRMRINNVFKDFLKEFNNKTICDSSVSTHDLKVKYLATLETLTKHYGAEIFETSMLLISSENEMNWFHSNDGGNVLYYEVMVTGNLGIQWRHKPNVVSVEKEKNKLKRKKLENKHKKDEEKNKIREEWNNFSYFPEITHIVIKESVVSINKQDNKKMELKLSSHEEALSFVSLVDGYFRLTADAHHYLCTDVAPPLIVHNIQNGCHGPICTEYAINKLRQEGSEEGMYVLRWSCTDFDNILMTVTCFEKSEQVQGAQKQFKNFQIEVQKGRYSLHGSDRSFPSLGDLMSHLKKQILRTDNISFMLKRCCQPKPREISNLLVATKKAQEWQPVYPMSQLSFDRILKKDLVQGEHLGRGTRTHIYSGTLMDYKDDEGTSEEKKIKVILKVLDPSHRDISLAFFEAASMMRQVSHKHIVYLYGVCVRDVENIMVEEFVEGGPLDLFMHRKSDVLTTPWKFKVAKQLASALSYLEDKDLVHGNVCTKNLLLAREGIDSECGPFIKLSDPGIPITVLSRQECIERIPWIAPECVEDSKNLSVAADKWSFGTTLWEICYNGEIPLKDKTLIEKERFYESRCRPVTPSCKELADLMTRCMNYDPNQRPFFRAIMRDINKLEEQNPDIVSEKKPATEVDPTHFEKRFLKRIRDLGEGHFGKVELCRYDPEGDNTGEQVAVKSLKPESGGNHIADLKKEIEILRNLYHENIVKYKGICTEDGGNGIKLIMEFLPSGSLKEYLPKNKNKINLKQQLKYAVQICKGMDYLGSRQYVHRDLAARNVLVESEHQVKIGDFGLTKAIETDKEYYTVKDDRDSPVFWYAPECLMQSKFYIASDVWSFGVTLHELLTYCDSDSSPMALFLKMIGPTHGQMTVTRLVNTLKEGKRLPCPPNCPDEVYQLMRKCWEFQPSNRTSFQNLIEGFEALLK"}, "source": "patent US10174056B2", "about": "“Substituted pyrrolo[2,3-d]pyrimidines as janus kinase inhibitors” (WUXI FORTUNE PHARMACEUTICAL CO., LTD, priority 2015, dated 2019)", "key": {"JAK1": {"molecular_target": "T1, JAK1 (Homo sapiens, UniProt P23458)", "T1 construct": "purchased Life technology", "experiment": "Test for in vitro activity of JAK1 kinase (LANCE Ultra ULight peptide)", "assay_type": "biochemical", "details": "recombinant human JAK1, 38 uM ATP, 90 min", "protocol": "(§1) Test for in vitro activity of Jak1, Jak2, and Jak3 Kinase\n(§2) Recombinant human […] of JAK1, JAK2 and JAK3 were purchased from Life technology. LANCE Ultra ULight™-JAK-1 (Tyr1023) peptide and LANCE Eu-W1024 Anti-phosphotyrosine (PT66) were purchased from PerkinElmer. Multimode ELISA, Envison(PerkinElmer) reader was used.\n(§3) The test compound was diluted according to gradient of three times concentration with a final concentration of from 10 uM to 0.17 nM at 11 concentrations totally, each concentration with two complex holes, and the content of DMSO in the detection was 1%.\n(§4) 2 nM of JAK1 Protein kinase, 50 nM of LANCE Ultra ULight™-JAK-1(Tyr1023) peptide, 38 uM of ATP, 50 mM of HEPES (pH 7.5), 10 mM of MgCl2, 1 mM of EGTA, 2 mM of DTT, 0.01% BRIJ-35. Checker board is White Proxiplate 384-Plus plate (PerkinElmer). The reaction was carried out at room temperature for 90 min and the reaction system was 10 ul.\n(§5) 10 ul detection reagent was added to reaction plate, wherein the final concentration of LANCE Eu-W1024 Anti-phosphotyrosine (PT66) was 2 nM, the final concentration of EDTA was […], incubated at room temperature for 60 min, with Envison reader.\n(§6) The reading was converted to inhibition ratio (%) by the following formula: the inhibition ratio (%)=([…])/(Max−Min)×100%."}, "JAK2": {"molecular_target": "T2, JAK2 (Homo sapiens, UniProt O60674)", "T2 construct": "purchased Life technology", "experiment": "Test for in vitro activity of JAK2 kinase (LANCE Ultra ULight peptide)", "assay_type": "biochemical", "details": "recombinant human JAK2, 12 uM ATP, 60 min", "protocol": "as §1, §2, §3\nas §4, with “0.02 nM” for “2 nM”, “of JAK2” for “of JAK1”, “peptide, 12” for “peptide, 38”, “for 60” for “for 90”\nas §5, §6"}}, "data": [{"substance": "N-(2-(difluoromethyl)-5,6,7,8-tetrahydroimidazo[1,2-a]pyridine-7-yl)-N-methyl-7H-pyrrolo[2,3-d]pyrimidine-4-amino [WX611]", "values": [{"measurement": "IC50", "setting": "JAK1", "value": "10 to 100", "unit": "nM"}, {"measurement": "IC50", "setting": "JAK2", "value": "100 to 1000", "unit": "nM"}]}]}
